Reference: patent publication US9587265
Substitutions are numbered along the chain they refer to. Names may count otherwise.

Sequences of proteins named here, by UniProt entry; tags and fusion partners are left off.
diubiquitin substrates of TRABID (Lys29-, Lys33- and Lys63-linked diUb), P0CG48, UniProt P0CG48, whole entry, looked up: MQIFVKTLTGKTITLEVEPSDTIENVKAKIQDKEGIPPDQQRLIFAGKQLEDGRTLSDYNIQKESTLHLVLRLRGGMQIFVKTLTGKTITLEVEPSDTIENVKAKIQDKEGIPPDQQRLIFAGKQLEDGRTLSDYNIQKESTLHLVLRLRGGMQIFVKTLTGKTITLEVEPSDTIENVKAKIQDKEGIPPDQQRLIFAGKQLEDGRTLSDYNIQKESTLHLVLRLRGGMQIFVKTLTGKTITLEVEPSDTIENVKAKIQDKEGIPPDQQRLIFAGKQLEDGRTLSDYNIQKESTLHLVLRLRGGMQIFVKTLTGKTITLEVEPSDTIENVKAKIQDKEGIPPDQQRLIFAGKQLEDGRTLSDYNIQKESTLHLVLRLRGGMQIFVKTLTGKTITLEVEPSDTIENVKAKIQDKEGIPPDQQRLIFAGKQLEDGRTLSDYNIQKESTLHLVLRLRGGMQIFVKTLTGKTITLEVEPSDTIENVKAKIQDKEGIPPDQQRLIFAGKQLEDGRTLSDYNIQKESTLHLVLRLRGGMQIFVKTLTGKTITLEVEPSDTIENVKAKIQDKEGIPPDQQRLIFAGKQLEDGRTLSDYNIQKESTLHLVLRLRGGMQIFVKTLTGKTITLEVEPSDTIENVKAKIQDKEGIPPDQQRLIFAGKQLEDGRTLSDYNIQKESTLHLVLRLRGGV

B1: full-length TRABID H317A (HEK293-expressed, N-terminal 3xFLAG-tag) (protein)
chain: MSERGIKWACEYCTYENWPSAIKCTMCRAQRPSGTIITEDPFKSGSSDVGRDWDPSSTEGGSSPLICPDSSARPRVKSSYSMENANKWSCHMCTYLNWPRAIRCTQCLSQRRTRSPTESPQSSGSGSRPVAFSVDPCEEYNDRNKLNTRTQHWTCSVCTYENWAKAKRCVVCDHPRPNNIEAIELAETEEASSIINEQDRARWRGSCSSGNSQRRSPPATKRDSEVKMDFQRIELAGAVGSKEELEVDFKKLKQIKNRMKKTDWLFLNACVGVVEGDLAAIEAYKSSGGDIARQLTADEVRLLNRPSAFDVGYTLVALAIRFQRQDMLAILLTEVSQQAAKCIPAMVCPELTEQIRREIAASLHQRKGDFACYFLTDLVTFTLPADIEDLPPTVQEKLFDEVLDRDVQKELEEESPIINWSLELATRLDSRLYALWNRTAGDCLLDSVLQATWGIYDKDSVLRKALHDSLHDCSHWFYTRWKDWESWYSQSFGLHFSLREEQWQEDWAFILSLASQPGASLEQTHIFVLAHILRRPIIVYGVKYYKSFRGETLGYTRFQGVYLPLLWEQSFCWKSPIALGYTRGHFSALVAMENDGYGNRGAGANLNTDDDVTITFLPLVDSERKLLHVHFLSAQELGNEEQQEKLLREWLDCCVTEGGVLVAMQKSSRRRNHPLVTQMVEKWLDRYRQIRPCTSLSDGEEDEDDEDE
B2: full-length TRABID L332E (HEK293-expressed, N-terminal 3xFLAG-tag) (protein)
chain: B1 chain with A317H, L332E
B3: full-length TRABID I320D (HEK293-expressed, N-terminal 3xFLAG-tag) (protein)
chain: B1 chain with A317H, I320D
B4: TRABID AnkOTU H317A (bacterially produced) (protein)
chain: LEVDFKKLKQIKNRMKKTDWLFLNACVGVVEGDLAAIEAYKSSGGDIARQLTADEVRLLNRPSAFDVGYTLVALAIRFQRQDMLAILLTEVSQQAAKCIPAMVCPELTEQIRREIAASLHQRKGDFACYFLTDLVTFTLPADIEDLPPTVQEKLFDEVLDRDVQKELEEESPIINWSLELATRLDSRLYALWNRTAGDCLLDSVLQATWGIYDKDSVLRKALHDSLHDCSHWFYTRWKDWESWYSQSFGLHFSLREEQWQEDWAFILSLASQPGASLEQTHIFVLAHILRRPIIVYGVKYYKSFRGETLGYTRFQGVYLPLLWEQSFCWKSPIALGYTRGHFSALVAMENDGYGNRGAGANLNTDDDVTITFLPLVDSERKLLHVHFLSAQELGNEEQQEKLLREWLDCCVTEGGVLVAMQKSSRRRNHPLVTQMVEKWLDRYRQIRPCTSLS
B5: TRABID AnkOTU L332E (bacterially produced) (protein)
chain: B4 chain with A73H, L88E
B6: TRABID AnkOTU I320D (bacterially produced) (protein)
chain: B4 chain with A73H, I76D
B7: TRABID AnkOTU, crystallized fragment including AnkUBD and OTU domain (protein)
chain: B4 chain with A73H

Target: diubiquitin substrates of TRABID (Lys29-, Lys33- and Lys63-linked diUb), P0CG48

Protein | Trabid activity against diUb substrates (DUB assay) | DUB activity
B1 | significantly reduced Trabid activity against diUb substrates | 
B2 | significantly reduced Trabid activity against diUb substrates | 
B3 | significantly reduced Trabid activity against diUb substrates | 
B4 | significantly reduced Trabid activity against diUb substrates | 
B5 | significantly reduced Trabid activity against diUb substrates | 
B6 | significantly reduced Trabid activity against diUb substrates | 
B7 |  | displayed significantly higher DUB activity compared to the isolated OTU domain
